Experimental data published in ChEMBL document CHEMBL5331091, “Design, synthesis and evaluation of antitumor activity of selective PRMT6 inhibitors” (Eur J Med Chem, 2023).
Calls of active or inactive are those of the source. The rule behind the calls is not given here.

The chains behind the UniProt entries cited, without tags or fusion partners.
UniProt Q96LA8, whole entry, looked up: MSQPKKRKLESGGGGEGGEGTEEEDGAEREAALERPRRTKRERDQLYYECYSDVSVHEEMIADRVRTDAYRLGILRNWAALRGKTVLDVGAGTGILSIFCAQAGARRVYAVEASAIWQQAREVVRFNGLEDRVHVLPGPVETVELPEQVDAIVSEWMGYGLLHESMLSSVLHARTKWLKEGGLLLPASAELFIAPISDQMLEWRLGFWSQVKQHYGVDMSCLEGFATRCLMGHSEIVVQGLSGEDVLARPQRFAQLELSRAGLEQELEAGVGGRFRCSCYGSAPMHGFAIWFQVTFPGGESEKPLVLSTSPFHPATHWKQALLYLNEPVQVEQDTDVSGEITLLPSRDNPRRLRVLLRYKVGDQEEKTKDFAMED

Biological target: Protein arginine N-methyltransferase 6 (Homo sapiens, UniProt Q96LA8)
Settings: dose 0-837.55 nM

CNCCN(C)Cc1cncc(-c2ccc(NS(=O)(=O)C3CC3)cc2)c1
inhibition: Active
